The record followed here is publication PMC6983048 (Molecules, 2019).

By IC50 is commonly meant the concentration needed to halve the response being measured.

This test deals with T1, recombinant human DHFR enzyme (Homo sapiens, UniProt P00374).
T1 construct: purchased
T1 sequence (P00374 1-187): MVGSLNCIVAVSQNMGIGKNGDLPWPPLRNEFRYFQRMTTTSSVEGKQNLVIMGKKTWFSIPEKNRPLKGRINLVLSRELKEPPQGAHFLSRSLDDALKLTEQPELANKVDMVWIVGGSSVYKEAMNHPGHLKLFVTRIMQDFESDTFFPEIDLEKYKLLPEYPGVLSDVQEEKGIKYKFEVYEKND
As to the kind of experiment: Dihydrofolate reductase (DHFR) inhibition assay. It counts as biochemical. The settings on record: pH 7.5, 22 °C, absorbance 340 nm. The procedure:
The procedure for detection of DHFR activity inhibition included preparation of a test mixture in a 1.0 mL quartz cuvette for the spectrophotometric method. Assay buffer—1× for DHFR (pH 7.5) and 1.5 × 10^−3 units of DHFR were added to the appropriate tube and thoroughly mixed. […] After mixing accurately, the reaction was initiated by adding 10 mM dihydrofolic acid (5 µL for each reaction) and a kinetics program was immediately started. The changes in absorbance (ΔOD/ min) were measured by the spectrophotometer Specord 200Plus (Analytikjena, Germany) at 340 nm and 22 °C, and the kinetic program (reading every 15 s for 2.5 min) according to the instructions supplied with the set and recommended by the producer.

Consider `COc1cc(CCC(=O)Nc2cnc(N)nc2)cc(OC)c1OC` [Compound 3, N-(2-Aminopyrimidin-5-yl)-3-(3,4,5-Trimethoxyphenyl)Propanamide], for which the IC50 came to 720 nM.
